For orientation: IC50 means the concentration that gives 50% inhibition.

Amino acid sequences for entries named in this document (tags omitted).
UniProt P21554, whole entry: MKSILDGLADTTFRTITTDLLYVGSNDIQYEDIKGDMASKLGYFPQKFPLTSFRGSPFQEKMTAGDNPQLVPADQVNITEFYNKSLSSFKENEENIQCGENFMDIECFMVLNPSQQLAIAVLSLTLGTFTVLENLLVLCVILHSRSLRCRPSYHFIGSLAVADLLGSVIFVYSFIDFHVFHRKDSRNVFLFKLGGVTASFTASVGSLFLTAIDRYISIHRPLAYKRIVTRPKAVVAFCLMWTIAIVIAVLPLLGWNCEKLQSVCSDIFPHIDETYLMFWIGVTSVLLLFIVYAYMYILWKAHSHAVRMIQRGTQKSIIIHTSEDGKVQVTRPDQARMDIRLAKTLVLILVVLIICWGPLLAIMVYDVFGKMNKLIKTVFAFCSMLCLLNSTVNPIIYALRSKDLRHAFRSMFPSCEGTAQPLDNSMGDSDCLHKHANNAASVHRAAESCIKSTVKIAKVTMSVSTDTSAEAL

This assay has as its target human CB1R (Homo sapiens (Human), UniProt P21554). Nature of the assay: CB1 cAMP (Assay 2): in vitro testing of CB1 potency. As to conditions: CHO cells expressing human CB1R; inhibition of forskolin-stimulated cAMP. It counts as cell-based.

As for `CC(C)(C#N)c1cc(NC(=O)[C@@H]2CCCN2C2CCOCC2)on1` [Example 6, (S)-1-(Tetrahydro-pyran-4-yl)-pyrrolidine-2-carboxylic acid[3-(cyano-dimethyl-methyl)-isoxazol-5-yl]-amide], the IC50 turned out to be 87 µM.

The values above are taken from patent US11725004B2, “(Cyano-dimethyl-methyl)-isoxazoles and -[1,3,4]thiadiazoles” (Centrexion Therapeutics Corporation, priority 2013, dated 2023).
